This assay concerns the target Cannabinoid receptor 2 (Homo sapiens) (UniProt P34972). The assay can be described thus: Displacement of [3H]CP55,940 from human CB2 receptor expressed in CHO cell membranes at 10 uM after 2 hrs by liquid scintillation analysis relative to control. The class given is cell-based. Conditions: filed as agonist.

Sequences of proteins named here, by UniProt entry; tags and fusion partners are left off.
UniProt P34972, whole entry: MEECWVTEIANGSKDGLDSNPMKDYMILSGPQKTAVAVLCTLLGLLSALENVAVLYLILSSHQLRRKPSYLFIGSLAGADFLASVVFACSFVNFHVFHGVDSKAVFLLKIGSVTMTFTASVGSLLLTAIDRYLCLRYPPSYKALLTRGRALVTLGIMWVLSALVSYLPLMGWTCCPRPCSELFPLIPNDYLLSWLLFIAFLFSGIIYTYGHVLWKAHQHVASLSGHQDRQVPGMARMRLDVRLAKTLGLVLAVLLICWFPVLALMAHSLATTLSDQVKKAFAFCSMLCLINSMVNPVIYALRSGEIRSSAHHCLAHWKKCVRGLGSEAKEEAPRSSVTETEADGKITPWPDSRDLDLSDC

Structures are written as SMILES.

For orientation: inhibition means the percentage by which the read-out fell short of the control.

Consider `Cn1c(=O)c2c(nc3n2CCCCN3CCc2c[nH]c3ccccc23)n(C)c1=O`, for which the inhibition turned out to be 46%.
